Experimental data taken from PMC5894102 (Journal of medicinal chemistry, 2017).

Conditions: mouse, human

SMILES | glucuronidation in microsomes with NADPH/UDPGA
NS(=O)(=O)c1ccc(Cc2c(-c3cccc(-c4ccccc4)c3)nn(-c3nc(C(=O)O)cs3)c2C2CC2)cc1 [Analog 61] | neither 61 nor 63 showed any evidence of glucuronidation
NS(=O)(=O)c1ccc(Cc2c(-c3cccc(-c4ccccc4)c3)nn(-c3nc(C(=O)O)cs3)c2CC2CC2)cc1 [Analog 63] | neither 61 nor 63 showed any evidence of glucuronidation
